Source: patent US7488721B2, “Real time methylumbelliferone-based assay” (McMaster University, priority 2004, dated 2009)

By UniProt entry, the sequences of proteins in these tests, tags left out. Residues count along the entry.
UniProt P06865, 23-74 partner limits assumed: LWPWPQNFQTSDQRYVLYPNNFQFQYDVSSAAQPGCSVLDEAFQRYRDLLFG
UniProt P06865, 89-529: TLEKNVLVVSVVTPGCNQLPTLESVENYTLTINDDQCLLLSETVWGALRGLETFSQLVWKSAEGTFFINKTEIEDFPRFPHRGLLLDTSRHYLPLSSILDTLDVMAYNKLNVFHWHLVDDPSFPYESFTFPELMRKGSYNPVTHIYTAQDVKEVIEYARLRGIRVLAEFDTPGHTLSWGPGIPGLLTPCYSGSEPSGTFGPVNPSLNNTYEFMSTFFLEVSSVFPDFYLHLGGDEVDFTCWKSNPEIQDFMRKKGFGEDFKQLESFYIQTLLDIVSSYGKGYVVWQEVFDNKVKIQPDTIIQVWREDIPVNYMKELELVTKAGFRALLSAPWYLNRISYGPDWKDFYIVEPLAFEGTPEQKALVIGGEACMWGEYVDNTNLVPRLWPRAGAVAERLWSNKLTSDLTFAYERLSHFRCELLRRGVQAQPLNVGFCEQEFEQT
UniProt P07686, 50-107 partner limits assumed: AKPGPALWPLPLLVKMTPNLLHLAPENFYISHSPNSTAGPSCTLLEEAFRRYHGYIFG
UniProt P07686, 315-556 limits assumed: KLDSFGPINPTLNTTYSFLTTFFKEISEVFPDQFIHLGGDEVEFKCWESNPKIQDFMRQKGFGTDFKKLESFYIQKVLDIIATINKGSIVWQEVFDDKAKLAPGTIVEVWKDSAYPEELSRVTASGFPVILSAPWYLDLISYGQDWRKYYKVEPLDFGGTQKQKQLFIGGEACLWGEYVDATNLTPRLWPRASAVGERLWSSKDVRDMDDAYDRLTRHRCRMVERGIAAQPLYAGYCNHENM
UniProt P07686, 122-311 limits assumed: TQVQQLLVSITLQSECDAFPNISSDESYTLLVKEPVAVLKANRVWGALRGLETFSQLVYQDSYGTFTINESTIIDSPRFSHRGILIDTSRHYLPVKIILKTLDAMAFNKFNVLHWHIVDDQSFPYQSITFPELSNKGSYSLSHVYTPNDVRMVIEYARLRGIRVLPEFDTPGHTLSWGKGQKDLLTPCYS

Molecular target: Human N-acetyl-β-hexosaminidase A (HexA) (Homo sapiens, UniProt P06865+P07686)
Experiment: biochemical

IC50: ~600 nM
SMILES: CCc1nc(N)nc(N)c1-c1ccc(Cl)cc1 [pyrimethamine, reference compound]
